Data: US10118915B2, “Kappa opioid ligands” (The Scripps Research Institute, priority 2012, dated 2018)

Amino acid sequences for entries named in this document (tags omitted). A change or cut given only in a name is not applied to a line headed by its entry.
UniProt P41145: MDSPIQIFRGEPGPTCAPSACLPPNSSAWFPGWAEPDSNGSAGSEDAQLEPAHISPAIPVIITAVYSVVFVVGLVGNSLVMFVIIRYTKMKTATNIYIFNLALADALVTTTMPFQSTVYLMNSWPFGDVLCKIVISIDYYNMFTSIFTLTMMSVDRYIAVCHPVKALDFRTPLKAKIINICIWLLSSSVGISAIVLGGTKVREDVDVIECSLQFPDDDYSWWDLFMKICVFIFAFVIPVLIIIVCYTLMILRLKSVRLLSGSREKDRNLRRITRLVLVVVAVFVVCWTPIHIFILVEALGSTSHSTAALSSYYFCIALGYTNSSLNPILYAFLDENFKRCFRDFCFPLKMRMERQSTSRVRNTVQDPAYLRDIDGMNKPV

What follows are compounds tested against kappa opioid receptor (OPRK1) (Homo sapiens (Human), UniProt P41145) (assay: OPRK1 antagonist assay (b-arrestin-2-TEV protease / b-lactamase reporter cell line, EC80 challenge of U-50488)). Details: antagonist mode vs EC80 U-50488.
Format: cell-based
Work on CCC1CN(c2nnc(C)cc2-c2nc(C)no2)CCC1NC1CCCCC1 (stereo not drawn) [compound 185] yielded an IC50 of 24 nM.
Cc1cc(C(=O)OC(C)C)c(N2CCC(NC3CCCCC3)CC2)nn1 [compound 385] was tested, and the IC50 was 1 nM.
In the case of Cc1cc(C(=O)OC(C)C)c(N2CCC(NC3CCOCC3)CC2)nn1 [compound 409], the IC50 is reported as 129 nM.
